These results are taken from ChEMBL document CHEMBL1126295, “p-(Methylsulfinyl)phenyl nitrogen mustard as a novel bioreductive prodrug selective against hypoxic tumors” (1992).

pIC50: −log10 of the molar value.

For assay [1], the species on record is Mus musculus. Kind of assay: The compound was evaluated for the cytotoxicity against BALB/c 3T3 mouse fibroblasts.
Assay [2] concerns CHO. Kind of assay: The compound was evaluated for the cytotoxicity against CHO cells under hypoxic condition.
Assay [3] deals with B16-F10. Kind of assay: The compound was evaluated for the cytotoxicity against B16-F10 murine melanoma cells.
The subject of assay [4] is CHO. The experiment in a line: The compound was evaluated for the cytotoxicity against CHO cells under normal aerobic condition.

The term pIC50 denotes the negative decadic logarithm of the IC50, by convention in mol/L.

As to `C[S+]([O-])c1ccc(N(CCCl)CCCl)cc1` (stereo unspecified), the pIC50 in assay [1] was 4.73; in assay [2] it was 4.05.
With `CSc1ccc(N(CCCl)CCCl)cc1`, the pIC50 in assay [3] was 4.93; in assay [1], 5.92; in assay [4], 5.46.
`CS(=O)(=O)c1ccc(N(CCCl)CCCl)cc1`: in assay [1], the pIC50 was 4.00.
